Test results from patent US7160874B2, “Phenylalanine derivatives” (Ajinomoto Co., Inc., priority 1999, dated 2007).

Amino acid sequences for entries named in this document (tags omitted). Residues count along the entry.
UniProt P05556, 21-798 limits assumed: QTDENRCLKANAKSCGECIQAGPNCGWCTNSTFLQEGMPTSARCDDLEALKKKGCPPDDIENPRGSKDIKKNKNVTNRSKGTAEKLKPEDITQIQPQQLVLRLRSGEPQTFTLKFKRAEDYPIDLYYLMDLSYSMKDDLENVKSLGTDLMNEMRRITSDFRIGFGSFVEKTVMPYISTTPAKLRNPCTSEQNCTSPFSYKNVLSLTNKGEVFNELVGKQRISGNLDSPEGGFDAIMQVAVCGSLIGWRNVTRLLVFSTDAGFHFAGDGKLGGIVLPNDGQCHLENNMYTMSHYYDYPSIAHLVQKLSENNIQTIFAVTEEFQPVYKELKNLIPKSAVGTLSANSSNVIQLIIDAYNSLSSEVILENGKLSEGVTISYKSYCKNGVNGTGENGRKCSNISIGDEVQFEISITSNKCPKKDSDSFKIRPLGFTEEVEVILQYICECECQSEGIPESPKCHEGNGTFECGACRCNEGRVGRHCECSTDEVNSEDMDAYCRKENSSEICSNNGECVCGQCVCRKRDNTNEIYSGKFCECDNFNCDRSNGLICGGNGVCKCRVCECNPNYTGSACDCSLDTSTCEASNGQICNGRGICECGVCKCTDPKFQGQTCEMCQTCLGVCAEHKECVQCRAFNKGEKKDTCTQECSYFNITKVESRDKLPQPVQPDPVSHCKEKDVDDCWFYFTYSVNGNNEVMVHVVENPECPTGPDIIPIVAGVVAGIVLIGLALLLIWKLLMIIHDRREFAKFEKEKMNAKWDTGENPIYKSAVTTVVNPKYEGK
UniProt P13612, 34-1032 limits assumed: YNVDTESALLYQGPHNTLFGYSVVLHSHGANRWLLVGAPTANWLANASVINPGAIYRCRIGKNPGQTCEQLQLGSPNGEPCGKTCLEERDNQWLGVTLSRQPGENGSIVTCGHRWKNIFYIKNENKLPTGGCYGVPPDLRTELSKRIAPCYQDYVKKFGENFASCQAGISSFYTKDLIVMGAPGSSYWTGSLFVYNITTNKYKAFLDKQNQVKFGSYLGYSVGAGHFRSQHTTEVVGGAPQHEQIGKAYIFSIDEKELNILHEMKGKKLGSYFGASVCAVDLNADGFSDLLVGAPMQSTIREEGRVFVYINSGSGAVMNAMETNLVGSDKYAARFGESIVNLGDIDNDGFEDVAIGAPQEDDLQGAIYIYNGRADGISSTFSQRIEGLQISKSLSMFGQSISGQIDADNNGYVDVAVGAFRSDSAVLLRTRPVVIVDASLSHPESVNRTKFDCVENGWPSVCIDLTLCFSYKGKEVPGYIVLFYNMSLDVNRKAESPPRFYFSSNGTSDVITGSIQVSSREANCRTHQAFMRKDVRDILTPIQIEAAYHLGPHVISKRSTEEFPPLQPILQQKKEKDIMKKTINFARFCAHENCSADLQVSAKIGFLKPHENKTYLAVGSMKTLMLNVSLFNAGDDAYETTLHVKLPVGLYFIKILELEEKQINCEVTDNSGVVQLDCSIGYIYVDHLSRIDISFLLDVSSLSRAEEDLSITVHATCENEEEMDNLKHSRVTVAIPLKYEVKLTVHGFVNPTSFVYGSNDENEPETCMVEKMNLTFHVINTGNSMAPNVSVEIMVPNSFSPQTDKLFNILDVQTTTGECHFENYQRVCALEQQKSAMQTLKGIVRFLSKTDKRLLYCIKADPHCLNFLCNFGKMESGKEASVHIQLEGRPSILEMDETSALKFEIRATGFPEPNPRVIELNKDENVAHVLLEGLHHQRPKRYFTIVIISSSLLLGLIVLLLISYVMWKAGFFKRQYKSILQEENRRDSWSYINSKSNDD
UniProt P26010, 20-798 limits assumed: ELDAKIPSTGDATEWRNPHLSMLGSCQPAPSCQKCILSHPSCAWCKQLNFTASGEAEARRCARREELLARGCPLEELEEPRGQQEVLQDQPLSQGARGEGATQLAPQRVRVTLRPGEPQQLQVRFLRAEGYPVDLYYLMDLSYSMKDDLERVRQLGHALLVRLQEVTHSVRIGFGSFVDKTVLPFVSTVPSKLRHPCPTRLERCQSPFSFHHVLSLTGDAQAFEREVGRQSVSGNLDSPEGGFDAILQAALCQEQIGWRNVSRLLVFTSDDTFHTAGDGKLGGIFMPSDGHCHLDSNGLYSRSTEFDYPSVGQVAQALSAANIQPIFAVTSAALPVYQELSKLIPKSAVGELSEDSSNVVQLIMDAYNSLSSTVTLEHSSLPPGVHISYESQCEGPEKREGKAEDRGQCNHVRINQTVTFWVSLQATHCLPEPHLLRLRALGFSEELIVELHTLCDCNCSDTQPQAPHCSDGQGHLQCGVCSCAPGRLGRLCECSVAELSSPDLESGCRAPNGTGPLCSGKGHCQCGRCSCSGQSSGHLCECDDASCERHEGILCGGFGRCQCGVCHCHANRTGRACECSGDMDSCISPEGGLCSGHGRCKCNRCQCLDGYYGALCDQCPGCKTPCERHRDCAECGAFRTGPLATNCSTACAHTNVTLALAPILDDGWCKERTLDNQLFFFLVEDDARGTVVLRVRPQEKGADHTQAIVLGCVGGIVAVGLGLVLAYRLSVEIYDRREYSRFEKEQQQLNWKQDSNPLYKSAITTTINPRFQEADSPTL

Key:
[1] = target: integrin α4β1 (Homo sapiens, UniProt P05556+P13612); experiment: VCAM antagonist activity (VCAM-1/α4β1 binding assay); conditions: read-out: VCAM antagonistic activity (IC50) α4β1; Jurkat cells binding to VCAM-1
Procedure: (Test Example) VCAM Antagonist Activity (VCAM-1/α4β1 Binding Assay):
The capacity of a test substance antagonistic to the binding of cell strain Jurkat (ATCC TIB-152) of human T cells, known to express integrin α4β1, to VCAM-1 was determined.
(§1) 100 μl/well of a solution (500 ng/ml) of recombinant human VCAM-1 (R & D systems) solution diluted with buffer A (0.1 M NaHCO3, pH 9.6) was added to a micro titer plate having 96 wells (Nunc Maxisorp). After the incubation at 4° C. overnight, unbound VCAM-1 was removed by washing once with PBS. After completion of the washing, a buffer (buffer B) obtained by diluting Block Ace® (Dainippon Pharmaceutical Co., Ltd.) with PBS to 1/4 concentration was added in an amount of 150 μl/well. After the incubation at room temperature for 1 hour, buffer B was removed and the plate was washed with PBS once.
Jurkat cells were washed with Dulbecco modified Eagle medium (SIGMA, hereinafter referred to as “DMEM”) twice and then incubated in DMEM containing 10 μg/ml of Calcein-AM (Wako Pure Chemical Industries, Ltd.) at 37° C. in dark place for 30 minutes to label with fluorescence. The cells were again suspended in a binding buffer (20 mM HEPES, DMEM containing 0.1% BSA).
(§2) 50 μl of a test substance of various concentrations obtained by the dilution with the binding buffer was added to the plate. Immediately thereafter, 50 μl (final volume: 100 μl/well) of the fluorescent Jurkat cells (4×10^6 cells/ml) were added thereto, and they were incubated at room temperature for 30 minutes. After the shaking on a plate shaker (IKA MTS-4) at 800 rpm for 30 seconds, the solution was immediately removed to remove the unbound cells. The fluorescence quantity of the bound cells remaining in the wells was determined with a fluorescent plate reader (Wallac 1420 ARVO multi-label counter) (filter excitation wave length: 485 nm, emission wave length: 535 nm). The fluorescent strength thus obtained is proportional to the number of Jurkat cells bound to VCAM-1 and remaining on the plate. The binding rate of each test material in various concentrations was determined while the fluorescent strength of the test material-free well was determined to be 100%. The concentration IC50 for the 50% binding inhibition was calculated.
(§3) The activities were classified into group A wherein IC50 was 0.02 μmol/l or below, group B wherein IC50 was higher than 0.02 μmol/l and not above 0.1 μmol/l, group C wherein IC50 was higher than 0.1 μmol/l and not above 2 μmol/l, and group D wherein IC50 was higher than 2 μmol/l and not above 10 μmol/l.

[2] = target: integrin α4β7 (Homo sapiens, UniProt P13612+P26010); experiment: VCAM antagonistic activity (VCAM-1/α4β7 binding assay); conditions: read-out: VCAM antagonistic activity (IC50) α4β7; RPMI-8866 cells binding to VCAM-1
Procedure: (Test Example) VCAM Antagonistic Activity (VCAM-1/α4β7 Binding Assay):
The capacity of a test substance antagonistic to the binding of lymphoma cell strain RPMI-8866 of human B cells, known to express integrin α4β7, to VCAM-1 was determined.
as §1
RPMI-8866 cells were incubated in Dulbecco modified Eagle medium containing 10 μg/ml of Calcein-AM (Wako Pure Chemical Industries, Ltd.) (SIGMA, hereinafter referred to as “DMEM”) at 37° C. for 30 minutes to label with fluorescence. The cells were again suspended in a binding buffer (20 mM HEPES, DMEM containing 0.1% BSA) containing 4 mM of MnCl2.
as §2, with “RPMI-8866” for “Jurkat”
as §3

Row | Compound | IC50 [1] [µM] | IC50 [2] [µM]
1 | CCC(CC)(C(=O)N[C@@H](Cc1ccc(OCc2c(Cl)cccc2Cl)cc1)C(=O)O)C(=O)N1CCCN(C(C)=O)CC1 | 0.1 to 2 | < 0.02
2 | CCC(CC)(C(=O)N[C@@H](Cc1ccc(OCc2c(Cl)cccc2Cl)cc1)C(=O)O)C(=O)N1C[C@H](O)C[C@@H]1C(N)=O | 0.02 to 0.1 | < 0.02
3 | CCC(CC)(C(=O)N[C@@H](Cc1ccc(OCc2c(Cl)cccc2Cl)cc1)C(=O)O)C(=O)N1C[C@H](O)C[C@H]1C(N)=O | 0.02 to 0.1 | < 0.02
4 | CCC(CC)(C(=O)N[C@@H](Cc1ccc(OCc2c(Cl)cccc2Cl)cc1)C(=O)O)C(=O)N1C[C@H](O)C[C@@H]1C(=O)OC | 0.02 to 0.1 | < 0.02

Now from value to compound:

Row | IC50 [1] [µM] | IC50 [2] [µM] | Compound
5 | 0.02 to 0.1 | < 0.02 | CCC(CC)(C(=O)N[C@@H](Cc1ccc(OCc2c(Cl)cccc2Cl)cc1)C(=O)O)C(=O)N1C[C@@H]2C[C@H]1CN2
6 | 0.1 to 2 | 0.02 to 0.1 | CCC(CC)(C(=O)N[C@@H](Cc1ccc(OCc2c(Cl)cccc2Cl)cc1)C(=O)O)C(=O)N1C(C)COCC1C (stereo partly drawn)
7 | 0.1 to 2 | < 0.02 | CCC(CC)(C(=O)N[C@@H](Cc1ccc(OCc2c(Cl)cccc2Cl)cc1)C(=O)O)C(=O)N1CC2CC1CO2 (stereo partly drawn)
8 | 0.1 to 2 | 0.02 to 0.1 | CCC(CC)(C(=O)N[C@@H](Cc1ccc(OCc2c(Cl)cccc2Cl)cc1)C(=O)O)C(=O)N1CC=CC1
9 | 0.1 to 2 | < 0.02 | CCC(CC)(C(=O)N[C@@H](Cc1ccc(OCc2c(Cl)cccc2Cl)cc1)C(=O)O)C(=O)N1CC2CC1CS2 (stereo partly drawn)
